# Assay results reported in PubChem BioAssay AID651965 (National Center for Advancing Translational Sciences (NCATS), 2013).
# Chains of the proteins cited; added tags and fusions are not shown.
# UniProt P80244, whole entry: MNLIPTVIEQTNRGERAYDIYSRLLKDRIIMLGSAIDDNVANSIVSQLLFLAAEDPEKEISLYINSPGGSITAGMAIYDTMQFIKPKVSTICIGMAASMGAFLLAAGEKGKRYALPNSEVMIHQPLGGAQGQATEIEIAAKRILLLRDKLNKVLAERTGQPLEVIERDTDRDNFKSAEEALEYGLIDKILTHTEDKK
# This is a selection; strong and weak results do not stand in their true shares. Inconclusive results are not listed. Active and inactive are the calls of the source. The call rests on the fitted dose curve; in most records, active means well fitted falling curve with a large enough effect; inconclusive means small, poorly fitted or top-dose-only effect; inactive means no such curve, though single readings can be large or run the other way.
# Molecular target: ATP-dependent Clp protease proteolytic subunit (Bacillus subtilis (strain 168)) (UniProt P80244)
# Assay: qHTS Assay for Activators of ClpP; further: the source files actives as falling curves though it sought activators and does not explain the sign; nearly all actives have a fitted effect of over 65% in size
# Details: purified B. subtilis ClpP, FRET peptide cleavage, 20 min; at 57.5 µM (top of the series)
row,SMILES,"activity change, negative = active"
1,CN(C)P(=O)(N(C)C)n1c(Nc2ccccc2)nnc1-c1ccccc1,inactive: 1.54%
2,Nc1cccc2ccc([As](=O)(O)O)cc12,inactive: 4.7%
3,CCCCCCCCCCCCCCCC1C[N+](C)(C)CCOP(C)(=O)O1 (stereo not drawn),inactive: -5.73%
4,CP(=O)(OCCOc1ccccc1)OCCOc1ccccc1,inactive: -5.11%
5,CCN(N=Nc1nonc1N)c1nonc1N,inactive: 1.42%
6,Nc1c(O)cc([N+](=O)[O-])cc1[N+](=O)[O-],inactive: 0.305%
7,[N-]=[N+]=NC1CCCCC1NC(=O)c1cc([N+](=O)[O-])cc([N+](=O)[O-])c1 (stereo not drawn),inactive: -12.8%
8,Cc1ccc(OP(=O)(Nc2ccc([N+](=O)[O-])cn2)Oc2ccc(C)cc2)cc1,inactive: 1.15%
9,CC(C)(C)c1ccc(OP(C)(=O)Nc2ccc(SC(F)(F)F)cc2)cc1 (stereo not drawn),inactive: 2.54%
10,Cc1cccc(C)c1OP(C)(N)=O (stereo not drawn),inactive: -2.02%
11,ClCCN(CCCl)c1ccc(CC2C=CC=C2)cc1,inactive: -0.261%
12,O=[N+]([O-])c1cc([N+](=O)[O-])c(Nc2cccnc2)c([N+](=O)[O-])c1,inactive: 1.64%
13,C[As](=O)(O)c1cccc(C(=O)O)c1,inactive: 1%
14,O=[N+]([O-])c1ccc(-c2cc([N+](=O)[O-])c(O)c([N+](=O)[O-])c2)cc1,inactive: -1.59%
15,COc1cc(C(=O)NCC2(N3CCOCC3)CCCCC2)ccc1OCC(C)C,inactive: -3.1%
16,CCN(CC)C(=S)SC(NC=O)C(Cl)(Cl)Cl (stereo not drawn),inactive: -14.9%
17,O=C(OC1CN2CCC1CC2)c1cccc2[nH]cnc12 (stereo not drawn),inactive: -0.561%
18,COc1ccc(OP(C)(=O)Nc2cccc(F)c2)cc1 (stereo not drawn),inactive: 0.828%
19,O=[N+]([O-])c1cc([N+](=O)[O-])c(-c2ccn[nH]2)s1,inactive: 0.924%
20,CCOC(=O)c1ccc(NP(C)(=O)Oc2ccccc2)cc1 (stereo not drawn),inactive: -1.31%

row,SMILES,"activity change, negative = active"
1,ClCCSc1nnc(-c2cccnc2)o1,inactive: -2.56%
2,O=Cc1ccc(NCCCl)cc1,inactive: -6.82%
3,COc1ccccc1OP(C)(=O)Nc1ccc(C)cc1 (stereo not drawn),inactive: -1.51%
4,COC(=O)C1(C)COP(=O)(N2CCCCCC2)OC1 (stereo not drawn),inactive: 1.17%
5,Cc1ccc(NP(C)(=O)Oc2ccccc2)c(C)c1 (stereo not drawn),inactive: 1.53%
6,O=P1(N(CCCl)CCCl)OCCCN1CCCl (stereo not drawn),inactive: -1.33%
7,Cc1c2c(nc3ccccc13)SC(C(Cl)Cl)C2 (stereo not drawn),inactive: -4.04%
8,O=C(OC1CN2CCC1CC2)C12CC3CC(CC(C3)C1)C2 (stereo not drawn),inactive: -1.71%
9,CCN(CC)CCCOC(=O)C(O)(c1ccccc1)c1ccccc1,inactive: -0.43%
10,O=[N+]([O-])c1cc(Oc2ccc([N+](=O)[O-])cc2C(F)(F)F)cc([N+](=O)[O-])c1,inactive: 0.467%
11,COc1ccc(N/C(=N/P(=O)(N2CCOCC2)N2CCOCC2)N2CCOCC2)cc1,inactive: 3.05%
12,COc1ccccc1-c1ccccn1.O=[N+]([O-])c1cc([N+](=O)[O-])c(O)c([N+](=O)[O-])c1,inactive: -6%
13,O=C(COc1ccccc1)OC1CN2CCC1CC2 (stereo not drawn),inactive: 0.625%
14,CP(=O)(NC(=O)Nc1ccccc1)Oc1ccccc1 (stereo not drawn),inactive: -1.68%
15,CCc1ccc(OP(C)(=O)N2CCN(c3ccc([N+](=O)[O-])cc3)CC2)cc1 (stereo not drawn),inactive: 1.83%
16,O=C(Nc1ccncc1[N+](=O)[O-])c1ccc([N+](=O)[O-])cc1[N+](=O)[O-],inactive: 0.173%
17,Cc1cc(C)cc(OP(C)(=O)Nc2ccc(SC(F)(F)F)cc2)c1 (stereo not drawn),inactive: -2.34%
18,COP1(=S)c2c(C)nn(CCC#N)c2N=C(c2ccc(F)cc2)N1C (stereo not drawn),inactive: -1.13%
19,Cc1cccc(C)c1OP(C)(=O)Nc1ccc(SC(F)(F)F)cc1 (stereo not drawn),inactive: -46.4%
20,CP(=O)(Nc1ccc(SC(F)(F)F)cc1)Oc1ccc(Cl)cc1 (stereo not drawn),inactive: -3.74%

row,SMILES,"activity change, negative = active"
1,COC(=O)C1(C)COP(=O)(N2CCCC2)OC1 (stereo not drawn),inactive: -14.6%
2,CCC(C)N(CC(C)C)C(=S)SC(NC(C)=O)C(Cl)(Cl)Cl (stereo not drawn),inactive: 0.534%
3,CP(=O)(Nc1ccccn1)Oc1ccc(Cl)cc1 (stereo not drawn),inactive: -14.8%
4,O=C(OC1CN2CCC1CC2)c1cccc([N+](=O)[O-])c1 (stereo not drawn),inactive: -0.164%
5,CCOP(C)(=S)SCC(=O)NC(C)C(=O)O (stereo not drawn),inactive: -0.464%
6,CSc1ccc(Nc2c([N+](=O)[O-])cc([N+](=O)[O-])cc2[N+](=O)[O-])cc1,inactive: -2.23%
7,CCOC(=O)c1ccc(NP(C)(=O)Oc2ccc(OC)cc2)cc1 (stereo not drawn),inactive: 1.55%
8,COP(=O)(OC)N1CC1c1ccccc1 (stereo not drawn),inactive: 1.91%
9,CCCCOc1ccc(C(=O)NCC2(N3CCCCC3)CCCCC2)cc1OC,inactive: -0.191%
10,Cc1cc(SC(NC(=O)c2ccccc2)C(Cl)(Cl)Cl)nc(C(C)C)n1 (stereo not drawn),inactive: -2.15%
11,O=C(O)C(=O)c1ccc(N(CCCl)CCCl)cc1.c1ccc(Nc2ccccc2)cc1,inactive: -2.38%
12,CCOC(=O)Nc1ccc([As](=O)(O)O)c(O)c1,inactive: -0.459%
13,CC1CCNP(=O)(N(CCCl)CCCl)O1 (stereo not drawn),inactive: -0.715%
14,CP(=O)(Nc1ccccc1Br)Oc1ccccc1 (stereo not drawn),inactive: -0.643%
15,O=[N+]([O-])c1ccc(Nc2ccc(Oc3ccc([N+](=O)[O-])cc3[N+](=O)[O-])cc2)c([N+](=O)[O-])c1,inactive: -5.09%
16,CP(=S)(Nn1cnnc1)Oc1ccccc1 (stereo not drawn),inactive: -0.762%
17,CN(C)C1(CNC(=O)c2ccc(S(C)(=O)=O)cc2)CCCCC1,inactive: -3.03%
18,CC1=C2N=C(C=C3N=C(C(C)=C4[N-][C@@](C)([C@@H]5N=C1[C@](C)(CCC(=O)NC[C@@H](C)OP(=O)([O-])O[C@H]1[C@@H](O)[C@@H](n6cnc7cc(C)c(C)cc76)O[C@@H]1CO)[C@H]5CC(N)=O)[C@@](C)(CC(N)=O)[C@@H]4CCC(N)=O)[C@@](C)(CC(N)=O)[C@@H]3CCC(N)=O)C(C)(C)[C@@H]2CCC(N)=O.[C-]#N.[Co+3],inactive: -2.66%
